Article PMC9021956 (2022)

Experiments:
[1] = test system: twelve prevalent HLA-A allotypes; assay: Peptide competitive binding assay, whole panel; details: high = IC50<5μM
HLA-A0201 = HLA-A0201 (Homo sapiens, UniProt P04439, D140Y/D185E/D98H/E176V/E277Q/G131W/G231S/I119V/I121R/I166T/I218V/L300P/L318F/N151K/N90K/P208A/P217A/Q86G/Q94H/R138H/R169H/T345S); assay: cell-based
HLA-A0207 = HLA-A0207 (Homo sapiens, UniProt P04439, D140Y/D185E/D98H/E176V/E277Q/G131W/G231S/I119V/I121R/I166T/I218V/L300P/L318F/N151K/N90K/P208A/P217A/Q86G/Q94H/R138H/R169H/T345S/Y123C); assay: cell-based
HLA-A1101 = HLA-A1101 (Homo sapiens, UniProt P04439, A114D/D185E/E176A/F33Y/L180Q/S129P/T187R); assay: cell-based
HLA-A2402 = HLA-A2402 (Homo sapiens, UniProt P04439, D101N/D140Y/D185E/E176V/E190D/F33S/G103R/G107R/I119L/I121M/I306V/K335N/L105A/L180Q/L300P/N151K/N90K/Q86E/Q94H/R106L/R138H/R89G/T104I/T345S/V100E/W191G/Y123F); assay: cell-based
HLA-A1102 = HLA-A1102 (Homo sapiens, UniProt P04439, A114D/D185E/E176A/E43K/F33Y/L180Q/S129P/T187R); assay: Peptide competitive binding assay, transfected HMy2.CIR cells, reference ATFQFK(FITC)VER
HLA-A0101 = HLA-A0101 (Homo sapiens, UniProt P04439, A114D/A174V/A182V/D101N/D185E/E176A/E190D/L180R/Q94H/R68K/S129P/T187R/V100A/V91M/W191G); assay: Peptide competitive binding assay, transfected HMy2.CIR cells, reference YLEPAK(FITC)AKY
HLA-A0301 = HLA-A0301 (Homo sapiens, UniProt P04439); assay: Peptide competitive binding assay, transfected HMy2.CIR cells, reference ATFQFK(FITC)VER

`CC(C)C[C@H](NC(=O)[C@@H](N)Cc1ccccc1)C(=O)N1CCC[C@H]1C(=O)N[C@@H](CO)C(=O)N[C@@H](CC(=O)O)C(=O)N[C@@H](Cc1ccccc1)C(=O)N[C@@H](Cc1ccccc1)C(=O)N1CCC[C@H]1C(=O)N[C@@H](CO)C(=O)N[C@H](C(=O)O)C(C)C` [Epitope P1] was tested, and the “number of HLA-A allotypes bound with high affinity” value [1] was “three”.

For `CSCC[C@H](NC(=O)[C@@H](N)CCSC)C(=O)N[C@@H](Cc1c[nH]c2ccccc12)C(=O)N[C@@H](Cc1ccc(O)cc1)C(=O)N[C@@H](Cc1c[nH]c2ccccc12)C(=O)NCC(=O)N1CCC[C@H]1C(=O)N[C@@H](CO)C(=O)N[C@@H](CC(C)C)C(=O)O` [Epitope P72], the IC50 (HLA-A0201) was less than 5 µM, the IC50 (HLA-A0207) was less than 5 µM and the IC50 (HLA-A1101) was greater than 15 µM. The IC50 (HLA-A2402) was less than 5 µM, the IC50 (HLA-A1102) was greater than 15 µM and the IC50 (HLA-A0101) was greater than 15 µM. For the same compound, the IC50 (HLA-A0301) was greater than 15 µM.
